Assay results from ChEMBL document CHEMBL1123465, “Buspirone analogues. 2. Structure-activity relationships of aromatic imide derivatives” (J Med Chem, 1986).

Protein sequences, listed by entry. Tags and fused reporters are not part of them. Lines headed by an entry give the natural chain unless they say otherwise; changes in a name come on top.
UniProt P28564: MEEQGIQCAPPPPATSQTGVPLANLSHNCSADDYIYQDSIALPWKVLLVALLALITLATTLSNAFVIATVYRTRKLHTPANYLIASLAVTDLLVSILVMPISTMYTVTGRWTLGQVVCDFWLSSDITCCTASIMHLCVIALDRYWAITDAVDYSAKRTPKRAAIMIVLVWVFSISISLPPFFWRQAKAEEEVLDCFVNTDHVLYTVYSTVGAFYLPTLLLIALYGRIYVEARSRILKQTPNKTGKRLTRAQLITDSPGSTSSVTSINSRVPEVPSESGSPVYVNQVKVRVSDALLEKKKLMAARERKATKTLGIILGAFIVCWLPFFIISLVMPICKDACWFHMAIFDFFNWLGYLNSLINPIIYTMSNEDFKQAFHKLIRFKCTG
UniProt P30940: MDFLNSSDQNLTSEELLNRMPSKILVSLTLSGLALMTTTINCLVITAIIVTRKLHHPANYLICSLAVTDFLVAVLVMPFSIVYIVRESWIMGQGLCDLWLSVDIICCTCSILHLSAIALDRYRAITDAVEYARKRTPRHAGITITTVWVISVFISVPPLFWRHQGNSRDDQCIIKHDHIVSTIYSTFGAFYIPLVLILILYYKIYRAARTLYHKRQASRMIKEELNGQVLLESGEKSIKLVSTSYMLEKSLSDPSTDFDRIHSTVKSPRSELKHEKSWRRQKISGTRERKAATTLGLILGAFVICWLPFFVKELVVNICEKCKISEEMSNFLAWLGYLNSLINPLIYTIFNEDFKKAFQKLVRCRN
UniProt P19327: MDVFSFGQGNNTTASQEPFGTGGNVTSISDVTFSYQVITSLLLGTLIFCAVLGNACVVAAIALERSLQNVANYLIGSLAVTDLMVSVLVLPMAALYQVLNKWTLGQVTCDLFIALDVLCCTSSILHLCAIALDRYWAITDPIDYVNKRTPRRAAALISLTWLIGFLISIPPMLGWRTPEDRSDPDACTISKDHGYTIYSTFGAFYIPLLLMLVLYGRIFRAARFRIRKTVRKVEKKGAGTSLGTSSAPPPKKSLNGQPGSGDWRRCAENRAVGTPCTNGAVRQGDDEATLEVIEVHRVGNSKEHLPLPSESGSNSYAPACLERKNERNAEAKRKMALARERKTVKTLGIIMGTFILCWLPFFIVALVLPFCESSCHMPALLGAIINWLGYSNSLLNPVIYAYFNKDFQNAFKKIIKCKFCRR
UniProt P28565: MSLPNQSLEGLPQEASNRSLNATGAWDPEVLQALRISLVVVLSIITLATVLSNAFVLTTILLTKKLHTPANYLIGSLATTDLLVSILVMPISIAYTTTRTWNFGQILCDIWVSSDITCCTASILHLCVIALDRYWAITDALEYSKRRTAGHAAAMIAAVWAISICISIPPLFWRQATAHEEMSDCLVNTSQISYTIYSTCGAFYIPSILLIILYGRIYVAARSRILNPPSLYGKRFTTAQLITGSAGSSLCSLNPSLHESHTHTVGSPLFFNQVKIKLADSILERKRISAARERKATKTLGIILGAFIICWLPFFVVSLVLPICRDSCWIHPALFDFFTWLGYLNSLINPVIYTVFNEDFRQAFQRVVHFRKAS

Target: Serotonin 1 (5-HT1) receptor (Rattus norvegicus, UniProt P28564+P30940+P19327+P28565)
Assay: Binding affinity towards hippocampus 5-hydroxytryptamine 1 receptor was measured using radioligand [3H]5-HT
Format: tissue-based

- IC50: 670 nM
Compound: CC1(C)CC(=O)N(CCCCN2CCN(c3ncccn3)CC2)C(=O)C1.Cl [GEPIRONE HYDROCHLORIDE]
